{"source": "patent US8927023B2", "about": "“Biocompatible, non-biodegradable, non-toxic polymer useful for nanoparticle pharmaceutical compositions” (Fresenius Kabi Oncology Limited, priority 2005, dated 2015)", "experiment": "Average particle size of the nanoparticles in the pharmaceutical composition", "assay_type": "physicochemical", "source_text": "This could be exemplified with respect to pharmaceutical compositions of two poorly water-soluble anticancer drugs or compounds, viz.", "data": [{"smiles": "CC(=O)O[C@H]1C(=O)[C@@]2(C)[C@H]([C@H](OC(=O)c3ccccc3)[C@]3(O)C[C@H](OC(=O)[C@H](O)[C@@H](NC(=O)c4ccccc4)c4ccccc4)C(C)=C1C3(C)C)[C@]1(OC(C)=O)CO[C@@H]1C[C@@H]2O", "note": "[Paclitaxel]", "values": [{"measurement": "Average Particle Size (nm)", "setting": "1 ml ethanol solution into ≈35 ml, needle 0.305 mm, addition 6 Secs", "result": 240, "unit": "nm"}, {"measurement": "Average Particle Size (nm)", "setting": "1 ml ethanol solution into ≈35 ml, needle 0.467 mm, addition 2 Secs", "result": 90, "unit": "nm"}, {"measurement": "Average Particle Size (nm)", "setting": "1 ml ethanol solution into ≈35 ml, needle 0.467 mm, addition 6 Secs", "result": 280, "unit": "nm"}, {"measurement": "Average Particle Size (nm)", "setting": "1 ml ethanol solution into ≈35 ml, needle 0.711 mm, addition 2 Secs", "result": 135, "unit": "nm"}, {"measurement": "Average Particle Size (nm)", "setting": "1 ml ethanol solution into ≈35 ml, needle 0.711 mm, addition 6 Secs", "result": 285, "unit": "nm"}, {"measurement": "Average Particle Size (nm)", "setting": "1 ml ethanol solution into ≈35 ml, needle 1.270 mm, addition 2 Secs", "result": 270, "unit": "nm"}, {"measurement": "Average Particle Size (nm)", "setting": "1 ml ethanol solution into ≈35 ml, needle 1.270 mm, addition 6 Secs", "result": 2300, "unit": "nm"}, {"measurement": "Average Particle Size (nm)", "setting": "15 ml ethanol solution into ≈500 ml, needle 0.330 mm, addition 18 Secs", "result": 50, "unit": "nm"}, {"measurement": "Average Particle Size (nm)", "setting": "15 ml ethanol solution into ≈500 ml, needle 0.711 mm, addition 10 Secs", "result": 85, "unit": "nm"}, {"measurement": "Average Particle Size (nm)", "setting": "15 ml ethanol solution into ≈500 ml, needle 0.711 mm, addition 15 Secs", "result": 150, "unit": "nm"}, {"measurement": "Average Particle Size (nm)", "setting": "nanoparticles with the polymer, 1 ml ethanol solution into ≈35 ml, needle 0.305 mm, addition 3 Secs", "result": 80, "unit": "nm"}]}]}
